In ChEMBL document CHEMBL1125523, “Novel indolodioxanes with antihypertensive effects: potent ligands for the 5-HT1A receptor” (J Med Chem, 1992):

Target: Opioid receptor (Rattus norvegicus, UniProt P33533+P34975+P33535)
Experiment: Compound was evaluated for the binding affinity towards opioid receptor from rat whole brain using [3H]etorpine (33.2 Ci/mmol,0.2nanoM)as radioligand

In the case of `COC(=O)c1cc2c3c(ccc2[nH]1)OCC(CN1CCC(n2c(O)nc4ccccc42)CC1)O3` (centres undefined), the Ki is reported as 4.3 nM.
`O=C(O)c1cc2c3c(ccc2[nH]1)OCC(CN1CCC2(CC1)C(=O)NCN2c1ccccc1)O3` (centres undefined) was tested, and the Ki was 131 nM.
In the case of `O=C(OCc1ccccc1)c1cc2c3c(ccc2[nH]1)OCC(CN1CCC2(CC1)C(=O)NCN2c1ccccc1)O3` (centres undefined), the Ki is reported as 14.4 nM.
Compound `COC(=O)c1cc2c3c(ccc2[nH]1)OCC(CN1CCC(Nc2ccccc2)(C(N)=O)CC1)O3` (centres undefined) has a Ki of 3230 nM.
